Experimental data published in US20060073528A1, “Measurement methods” (priority 2004, published 2006).

Experiment: Sample stability of DM1-related impurities with DS-DM1-deJ591 in the autosampler (Hisep RP-HPLC)

Q: With `S=c1cccc[nH]1` [mercaptopyridine] as the compound, how does the “% remaining area counts relative to t = 0 h” value (t = 12 h) read?
A: Its value is 101.35%.

Q: What about the “% remaining area counts relative to t = 0 h” value (t = 24 h) of the same compound?
A: The value was 101.13%.
